The numbers were not newly measured in publication PMC5999399 (Journal of medicinal chemistry, 2017), which cites them from elsewhere.

Chains of the proteins cited; added tags and fusions are not shown. Lines headed by an entry give the natural chain unless they say otherwise; changes in a name come on top.
UniProt Q01726: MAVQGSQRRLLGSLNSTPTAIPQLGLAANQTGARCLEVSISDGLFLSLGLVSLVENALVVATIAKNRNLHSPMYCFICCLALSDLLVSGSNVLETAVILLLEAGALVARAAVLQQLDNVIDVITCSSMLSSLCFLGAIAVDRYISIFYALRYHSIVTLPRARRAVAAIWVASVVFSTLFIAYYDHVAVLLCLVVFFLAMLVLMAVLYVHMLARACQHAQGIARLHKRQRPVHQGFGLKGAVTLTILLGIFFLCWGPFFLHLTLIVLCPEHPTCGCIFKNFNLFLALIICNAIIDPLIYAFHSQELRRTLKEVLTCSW
UniProt P32245, whole entry: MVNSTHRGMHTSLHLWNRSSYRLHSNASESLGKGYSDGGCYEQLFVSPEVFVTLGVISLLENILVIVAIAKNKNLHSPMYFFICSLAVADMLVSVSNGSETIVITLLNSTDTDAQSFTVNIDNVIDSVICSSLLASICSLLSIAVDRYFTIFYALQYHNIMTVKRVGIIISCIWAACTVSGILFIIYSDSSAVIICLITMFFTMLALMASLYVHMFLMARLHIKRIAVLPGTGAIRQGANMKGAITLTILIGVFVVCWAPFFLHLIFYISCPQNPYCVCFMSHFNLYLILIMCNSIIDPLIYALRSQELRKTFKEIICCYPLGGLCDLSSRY

For orientation: EC50 means the midpoint of the concentration-response curve. What is called IC50 is the point on the concentration scale where inhibition reaches its midpoint.

The target in series [1] is human MC1R (hMC1R) (Homo sapiens, UniProt Q01726). The conditions noted are these: read-out: hMC1R EC50; cAMP accumulation; ref previously published data; cited from earlier work.
For series [2], the target named is T1, human MC4R (hMC4R) (Homo sapiens, UniProt P32245). The conditions noted are these: read-out: hMC4R IC50; 50% specific binding; ref previously published data; cited from earlier work.
For series [3], the target named is T1, human MC4R (hMC4R). Conditions: read-out: hMC4R EC50; cAMP accumulation; ref previously published data; cited from earlier work.

Take “H-Tyr-Val-Nle-Gly-His-D-Nal(2)-Arg-D-Trp-Asp-Arg-Phe-Gly-NH2 [Compound 1]”: the EC50 in series [1] was 3 ± 0.2 nM; in series [3], 630 ± 70 nM. The IC50 in series [2] was 6 ± 1 nM.
